Where a name gives a salt, the structure may show the parent alone.
Test system: spontaneous motor activity
Assay: spontaneous motor activity in mice (circular actophotometers, activity counts)
Type: in vivo, mouse
Details: i.p.
Text: On the other hand, the activity of the compounds of the present invention, as psychomotor stimulants, is based on a variety of tests, including (1) a study of their motor activity in mice and (2) a measurement of their ability to influence the loss of avoidance behavior in rats trained on a non-discriminated (Sidman) avoidance schedule.
Seven circular acetophotometers, each 39 cm. in diameter and each containing six photocell units, were used to independently study the effects of trans-dl-N-methyl-4-phenyl-1,2,3,4-tetrahydro-1-naphthylamine hydrochloride, trans-d-N-methyl-4-phenyl-1,2,3,4-tetrahydro-1-naphthylamine hydrochloride and its corresponding laevortatory isomer, d-amphetamine sulfate, methylphenidate, desmethylimipramine and protriptyline, respectively, on spontaneous motor activity in mice. A total of seven mice was employed at each dose level tested (viz., at 0.32, 1.0, 3.2, 10 and 32 mg./kg., i.p., respectively) and these mice were separated one to an activity cage. After an initial 1/2 hour exposure period (for acclimation purposes), each animal in the cage was treated with a sample of the drug intraperitoneally and immediately thereafter returned to said cage, with activity counts every 1/2 hour being recorded from that point on.

CN[C@@H]1CC[C@@H](c2ccccc2)c2ccccc21 (relative stereo) [Trans-isomer of Example IV, trans-dl-N-methyl-4-phenyl-1,2,3,4-tetrahydro-1-naphthylamine hydrochloride]
potency as motor stimulant relative to the dextrorotatory isomer: somewhat less potent than the aforesaid dextrorotatory isomer

From patent US4045488A, “Aminophenyltetralin compounds” (Pfizer Inc., priority 1976, dated 1977)
